# Measured affinities in a library of Ab-14 heavy chain variants

The measurements come from Li et al. 2023 (doi:10.1038/s41467-023-39022-2) through the FLAb antibody collection.

Binding partner: SARS-CoV-2 spike HR2 peptide, sequence PDVDLGDISGINAS.

The variants keep the light chain, the linker and the frameworks of Ab-14 (scFv order VH, a 15-residue (Gly4Ser)3 linker, VL).
VH: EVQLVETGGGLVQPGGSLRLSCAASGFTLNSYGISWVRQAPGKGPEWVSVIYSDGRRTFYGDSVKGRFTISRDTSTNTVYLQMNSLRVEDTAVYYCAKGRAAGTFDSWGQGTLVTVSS
VL: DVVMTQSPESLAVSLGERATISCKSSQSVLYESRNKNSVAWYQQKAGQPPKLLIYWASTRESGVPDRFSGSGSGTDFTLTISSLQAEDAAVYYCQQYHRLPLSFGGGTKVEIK

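Designed CDR sequences, proposed from the first random library and measured here. Group labels follow the data file (Ctrl: baseline library sampled from a position-specific scoring matrix, with some repeated check sequences; GPLM: also part of the Gaussian process libraries; HC: hill climbing; Gen: genetic algorithm; a sequence that several methods proposed may carry one label only). Affinity was read by AlphaSeq, a pooled yeast mating assay with surface-displayed partners. Binding brings cells together so that they mate, and sequencing counts the barcode pairs among the diploids. Scores were corrected for input abundance and mapped to Kd with protein pairs of known affinity run in the same pool. The assay was run in six technical replicates.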

Each variant is given by its three heavy chain CDRs, as the data file delimits them; those of the parent are GFTLNSYGIS, VIYSDGRRTFYGDSVK, GRAAGTFDS.
The read-out is the apparent dissociation constant on a log10 scale (nM): the lower, the stronger.
An entry "n.d." has no value in the source: the pair was not observed among the diploids in that replicate. This suggests poor binding but is not conclusive.
Values of this round are not directly comparable with the first-round values of the same sequences.
The parent sequence was in this pool as ten entries: three were never detected, three once, and four in most replicates, with averages from 0.34 to 2.37.
Background: pairings of all heavy chain designs with three empty control strains gave a value in 1% of cases (median 2.08, 5th percentile 0.84). Values in that range, when seen in few replicates, are hard to tell from nonspecific mating. For each scFv, signals with the empty controls are counted beside the result, with their mean in brackets.
Where one sequence has several entries in the source, the replicates are listed entry by entry, parted by semicolons.
The authors averaged sequences with at least three values out of six and counted those with two or fewer as poor binders.

{"CDR-H1": "GFTLNSYGIS", "CDR-H2": "VIYSDGRRTFYVDSVK", "CDR-H3": "GRAAGTFDL", "group": "Ctrl", "log10 Kd, replicates": "1.63 / 1.33 / 1.00 / 0.62 / 0.96 / 1.25", "empty controls": "1 of 18 (2.18)"}
{"CDR-H1": "GFHLNDYGIS", "CDR-H2": "VIYSDGRRTFYSDSVK", "CDR-H3": "GRAKGTFDS", "group": "Ctrl", "log10 Kd, replicates": "n.d. / n.d. / n.d. / n.d. / n.d. / n.d.", "empty controls": "0 of 18"}
{"CDR-H1": "GFTLRSYGIS", "CDR-H2": "VIYSDGKRTFYGDSVK", "CDR-H3": "GRNAGTFDS", "group": "Ctrl", "log10 Kd, replicates": "1.89 / n.d. / n.d. / 2.68 / n.d. / 3.11", "empty controls": "0 of 18"}
{"CDR-H1": "GFNLNSYGIS", "CDR-H2": "VIYSDGRRAFYGDSVK", "CDR-H3": "GRCAGHFDS", "group": "Ctrl", "log10 Kd, replicates": "n.d. / n.d. / n.d. / n.d. / n.d. / n.d.", "empty controls": "0 of 18"}
{"CDR-H1": "GFTLNSYGIS", "CDR-H2": "VIYSDGRRTFYGDSVK", "CDR-H3": "GQAAGTYDS", "group": "Ctrl", "log10 Kd, replicates": "n.d. / n.d. / n.d. / n.d. / n.d. / n.d.", "empty controls": "0 of 18"}
{"CDR-H1": "GFTLNSYGIT", "CDR-H2": "VIYSDGRRTSYGDEVK", "CDR-H3": "GRAAGTFDS", "group": "Ctrl", "log10 Kd, replicates": "n.d. / n.d. / n.d. / n.d. / n.d. / n.d.", "empty controls": "1 of 18 (0.73)"}
{"CDR-H1": "GFTLNSYGIS", "CDR-H2": "VIYADGRRTFYGDSVK", "CDR-H3": "GRYAGTFDS", "group": "Ctrl", "log10 Kd, replicates": "0.88 / 0.11 / 0.31 / 0.24 / -0.02 / 0.14", "empty controls": "0 of 18"}
{"CDR-H1": "KFTLNSYGIS", "CDR-H2": "VIYSDGRRTFYGDSVK", "CDR-H3": "GRSAGTFDS", "group": "Ctrl", "log10 Kd, replicates": "n.d. / n.d. / n.d. / n.d. / n.d. / n.d.", "empty controls": "0 of 18"}
{"CDR-H1": "GFQLNSYGIS", "CDR-H2": "VIYSDGRRTFYSDSVK", "CDR-H3": "GRAAGTFDS", "group": "Ctrl+GPLM_HC", "log10 Kd, replicates": "0.27 / 0.49 / 0.61 / 0.36 / 0.48 / 0.80; 0.89 / 0.46 / 0.76 / 0.70 / 0.65 / 0.75", "empty controls": "3 of 36 (2.38)"}
{"CDR-H1": "GFHLNQYGIS", "CDR-H2": "VIYSDGRRTFYGDSVK", "CDR-H3": "GKLAGTFDS", "group": "Ctrl", "log10 Kd, replicates": "-0.38 / -0.57 / -0.73 / -0.63 / -0.47 / -0.32", "empty controls": "0 of 18"}
{"CDR-H1": "GFTLNNYGIS", "CDR-H2": "VIYSDGRRTFYIDSVK", "CDR-H3": "GRAAGTFDS", "group": "Ctrl", "log10 Kd, replicates": "n.d. / 1.58 / 3.18 / 2.18 / 2.37 / 1.81", "empty controls": "1 of 18 (2.40)"}
{"CDR-H1": "GFTLLSYGIS", "CDR-H2": "VIYSDGRRTFYGDSVK", "CDR-H3": "RVAAGTFRS", "group": "Ctrl", "log10 Kd, replicates": "n.d. / n.d. / n.d. / n.d. / 2.48 / n.d.", "empty controls": "1 of 18 (3.11)"}
{"CDR-H1": "GFTLNSYGIS", "CDR-H2": "VIYSDGRRTFYGDEVK", "CDR-H3": "GRAAGTFDS", "group": "Ctrl", "log10 Kd, replicates": "n.d. / n.d. / n.d. / n.d. / n.d. / 1.23", "empty controls": "0 of 18"}
{"CDR-H1": "GFDIESYGIS", "CDR-H2": "VIYSDGRRTFYGDSVR", "CDR-H3": "GRAAGTFDS", "group": "Ctrl", "log10 Kd, replicates": "0.28 / 0.06 / 0.50 / -0.05 / 0.09 / -0.02", "empty controls": "1 of 18 (2.13)"}
{"CDR-H1": "GFTLNSYGIS", "CDR-H2": "VIYSDGRRTEYGDSVK", "CDR-H3": "GKAAGTFDS", "group": "Ctrl", "log10 Kd, replicates": "2.09 / 1.25 / 2.39 / 1.42 / 1.98 / 2.30", "empty controls": "0 of 18"}
{"CDR-H1": "GFWLNSYGIS", "CDR-H2": "VIYSDGRRTFYGDSVK", "CDR-H3": "GRHAGLFDS", "group": "Ctrl", "log10 Kd, replicates": "n.d. / n.d. / n.d. / n.d. / n.d. / n.d.", "empty controls": "0 of 18"}
{"CDR-H1": "GFTLKSYGIS", "CDR-H2": "VIYSDGRRTFYGDSVK", "CDR-H3": "GRAAGTFHM", "group": "Ctrl", "log10 Kd, replicates": "n.d. / n.d. / n.d. / n.d. / n.d. / n.d.", "empty controls": "0 of 18"}
{"CDR-H1": "GFTLNSYGIS", "CDR-H2": "VIYSDGFRTFYGDSVK", "CDR-H3": "GRAAGTFDV", "group": "Ctrl", "log10 Kd, replicates": "n.d. / n.d. / n.d. / n.d. / 1.89 / n.d.", "empty controls": "1 of 18 (0.56)"}
{"CDR-H1": "GFTLNSYGIS", "CDR-H2": "VIYSDGRRTFYGDSVK", "CDR-H3": "GRAAVWFDS", "group": "Ctrl", "log10 Kd, replicates": "n.d. / n.d. / n.d. / n.d. / n.d. / n.d.", "empty controls": "0 of 18"}
{"CDR-H1": "GFTLNSYGIS", "CDR-H2": "VIYSDGRRTFYSDSVK", "CDR-H3": "GRTAGTFDS", "group": "Ctrl+GPLM_Gen", "log10 Kd, replicates": "0.67 / 0.87 / 0.43 / 0.62 / 0.80 / 0.76; 0.32 / 0.14 / -0.01 / 0.15 / 0.12 / 0.31", "empty controls": "2 of 36 (2.38)"}
{"CDR-H1": "GRTLNSYGIS", "CDR-H2": "VIYSDLRRTFYGDSVK", "CDR-H3": "GRAAGNFDS", "group": "Ctrl", "log10 Kd, replicates": "n.d. / n.d. / n.d. / n.d. / n.d. / n.d.", "empty controls": "0 of 18"}
{"CDR-H1": "GFTLNQYGIQ", "CDR-H2": "VIYSDGRRTFYGDSVK", "CDR-H3": "GRAAGTGDS", "group": "Ctrl", "log10 Kd, replicates": "n.d. / n.d. / n.d. / n.d. / n.d. / n.d.", "empty controls": "0 of 18"}
{"CDR-H1": "GFTLNSYGIS", "CDR-H2": "VIYSDGRRTGYGDSVK", "CDR-H3": "GRAAGRFDS", "group": "Ctrl", "log10 Kd, replicates": "n.d. / n.d. / n.d. / n.d. / n.d. / n.d.", "empty controls": "0 of 18"}
{"CDR-H1": "GFTLNSYGIS", "CDR-H2": "VIYSDGRRTFYSDSVK", "CDR-H3": "GRAAYTFDS", "group": "Ctrl", "log10 Kd, replicates": "n.d. / n.d. / 0.89 / n.d. / n.d. / n.d.", "empty controls": "0 of 18"}
{"CDR-H1": "GFNLDSYSRS", "CDR-H2": "VIYSDGRRTFYGDDVK", "CDR-H3": "GREAGTFDS", "group": "Ctrl", "log10 Kd, replicates": "-0.32 / -0.70 / -0.45 / -0.75 / -0.84 / -0.75", "empty controls": "4 of 18 (2.10)"}
{"CDR-H1": "GFWLNSYGIS", "CDR-H2": "VIYSDGRRTFYGDSVK", "CDR-H3": "GRHKGTFDS", "group": "Ctrl", "log10 Kd, replicates": "n.d. / n.d. / n.d. / 3.90 / n.d. / n.d.", "empty controls": "1 of 18 (1.52)"}
{"CDR-H1": "GFTLNEYGIS", "CDR-H2": "VIYSDGRRTGYQDSVK", "CDR-H3": "GKARGTFDS", "group": "Ctrl", "log10 Kd, replicates": "n.d. / n.d. / n.d. / n.d. / n.d. / n.d.", "empty controls": "0 of 18"}
{"CDR-H1": "GFTLNSYGIS", "CDR-H2": "VIYSDGRRTFYGDDVK", "CDR-H3": "GRAIGPFDS", "group": "Ctrl", "log10 Kd, replicates": "n.d. / n.d. / n.d. / 0.62 / n.d. / n.d.", "empty controls": "0 of 18"}
{"CDR-H1": "GFTLNSYGIS", "CDR-H2": "VIYSDGRRTFYGDSVK", "CDR-H3": "GEAAGGFDS", "group": "Ctrl", "log10 Kd, replicates": "1.47 / 0.94 / 1.19 / 0.40 / 0.96 / 1.05", "empty controls": "0 of 18"}
{"CDR-H1": "GFNLNSYGIS", "CDR-H2": "VIYSDGRRTFYGQSVD", "CDR-H3": "GRAAGTFDS", "group": "Ctrl", "log10 Kd, replicates": "n.d. / n.d. / n.d. / n.d. / n.d. / 2.95", "empty controls": "0 of 18"}